This series in a line: physchem.

On to `COc1cc(Cc2cnc(N)nc2N)cc(OC)c1OC` [TRIMETHOPRIM], for which the pKa (commonly the negative logarithm of the acid dissociation constant) was found to be 7.2.

The record behind these values is ChEMBL document CHEMBL1133765, “QSAR model for drug human oral bioavailability” (J Med Chem, 2000).
